This passage reports IC50 results from ChEMBL document CHEMBL3864133, “Discovery of a Potent and Selective in Vivo Probe (GNE-272) for the Bromodomains of CBP/EP300” (J Med Chem, 2016).

The term IC50 denotes the concentration at which inhibition is half-maximal. High values mean a need for much substance, low ones inhibition by little substance.

Molecules are shown by their SMILES. Where only a bound is given, the exact number is not on record here.

This assay concerns the target Nucleosome-remodeling factor subunit BPTF (Homo sapiens, UniProt Q12830).

With `CC(=O)N1CCc2c(c(Nc3ccc(-c4cnn(C)c4)cc3F)nn2[C@@H]2CCOC2)C1`, the IC50 is more than 20 µM.
